This note sets out measurements from PubChem BioAssay AID1416 (The Scripps Research Institute Molecular Screening Center, 2008).

By UniProt entry, the sequences of proteins in these tests, tags left out. Where a name states a change or a piece, a line headed by the entry shows the natural chain unless it says otherwise.
UniProt Q9NZJ5: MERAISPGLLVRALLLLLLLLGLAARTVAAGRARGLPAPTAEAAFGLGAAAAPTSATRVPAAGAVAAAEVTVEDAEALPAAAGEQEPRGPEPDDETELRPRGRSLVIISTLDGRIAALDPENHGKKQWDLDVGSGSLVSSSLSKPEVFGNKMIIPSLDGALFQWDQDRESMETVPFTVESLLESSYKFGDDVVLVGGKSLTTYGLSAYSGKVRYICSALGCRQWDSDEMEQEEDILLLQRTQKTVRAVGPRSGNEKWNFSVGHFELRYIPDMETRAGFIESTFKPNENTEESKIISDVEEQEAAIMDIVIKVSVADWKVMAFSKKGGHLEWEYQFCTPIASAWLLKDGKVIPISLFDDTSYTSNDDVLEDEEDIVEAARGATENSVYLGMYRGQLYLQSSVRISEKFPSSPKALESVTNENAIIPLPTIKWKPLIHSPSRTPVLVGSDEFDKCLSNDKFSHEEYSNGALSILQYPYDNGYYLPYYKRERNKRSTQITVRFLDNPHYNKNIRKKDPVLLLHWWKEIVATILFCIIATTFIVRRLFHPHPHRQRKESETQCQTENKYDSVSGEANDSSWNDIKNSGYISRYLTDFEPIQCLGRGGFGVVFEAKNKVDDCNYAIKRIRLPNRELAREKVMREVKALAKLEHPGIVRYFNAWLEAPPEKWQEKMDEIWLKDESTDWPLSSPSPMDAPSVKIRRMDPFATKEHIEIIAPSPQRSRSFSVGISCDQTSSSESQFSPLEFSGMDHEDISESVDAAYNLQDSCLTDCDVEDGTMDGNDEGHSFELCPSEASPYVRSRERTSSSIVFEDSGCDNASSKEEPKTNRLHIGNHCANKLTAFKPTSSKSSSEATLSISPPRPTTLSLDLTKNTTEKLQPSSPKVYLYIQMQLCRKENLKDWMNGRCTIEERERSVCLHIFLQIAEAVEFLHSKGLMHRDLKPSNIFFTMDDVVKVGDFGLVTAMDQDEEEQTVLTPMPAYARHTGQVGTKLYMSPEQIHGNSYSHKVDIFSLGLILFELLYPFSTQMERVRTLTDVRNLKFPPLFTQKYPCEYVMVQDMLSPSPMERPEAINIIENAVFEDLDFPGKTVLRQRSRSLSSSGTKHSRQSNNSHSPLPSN

Several values for one entry are separate records, joined by “and”; a condition that tells them apart may be missing. Equal entries are not always repeated. Only a part is listed here, and it is no random draw. Activity calls are given as the source filed them.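 Rule for the calls: active = inhibition above the mean inhibition of all tested compounds plus 3 SD, set separately per screening campaign (cut at about 2.9% in these data); inactive = the rest.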

For this test, the target named is Eukaryotic translation initiation factor 2-alpha kinase 3 (Homo sapiens) (UniProt Q9NZJ5). Briefly: block of dimerizer-induced PERK translation repression, primary screen, PERK inhibitor project, CHO PERK-DD cells, SEAP luminescence, HTS (AID 1416).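 Note: PERK kinase domain activated by AP20187 dimerizer at 100 nM; 0% = DMSO with dimerizer and 100% = rapamycin at 8.4 µM.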 Conditions: CHO PERK-DD fusion, SEAP luminescence translation reporter; at 5.6 µM; stronger effect = higher value.
One may read the inhibition as the change of the read-out against control, counted positive when it falls. Regarding `O=C(OC1CN2CCC1CC2)c1cccc(Cl)c1` (configuration not stated), the inhibition was inactive: 0.2%.

Turning to `C(Cc1nn[nH]n1)Cc1nn[nH]n1`, the inhibition was inactive: 1.5%.

In the case of `Nc1ccc([As](=O)(O)c2ccc([N+](=O)[O-])cc2)cc1`, the inhibition was inactive: 0.81%.

In the case of `O=[As](O)(c1ccccc1)c1ccc(O)cc1`, the inhibition is inactive: -0.22%.

On to `CC(=O)NC(SC(=S)N(C)C)C(Cl)(Cl)Cl` (configuration not stated), for which the inhibition is inactive: 0.72%.

Regarding `O=[N+]([O-])c1ncn(CCn2cnc([N+](=O)[O-])n2)n1`, the inhibition was inactive: 1.66%.

Turning to `O=P(Nc1nc2ccccc2s1)(c1ccccc1)c1ccccc1`, the inhibition is inactive: 0.52%.

As to `O=P(Nc1ccccn1)(c1ccc(Br)cc1)c1ccc(Br)cc1`, the inhibition is inactive: -0.27%.

Regarding `c1nnnn1CCn1cnnn1`, the inhibition is inactive: 0.6%.

Regarding `CC(C)C(=O)NC(Sc1ccccc1)C(Cl)(Cl)Cl` (configuration not stated), the inhibition was inactive: 0.95%.

On to `O=P(Nc1nccs1)(c1ccccc1)c1ccccc1`, for which the inhibition was inactive: -0.41%.

On to `CC(=O)Nc1ccc(Oc2c([N+](=O)[O-])cc([N+](=O)[O-])cc2[N+](=O)[O-])cc1`, for which the inhibition was inactive: -0.33%.

As to `CC(=O)Nc1ccc([As](=O)(O)O)c(O)c1`, the inhibition is inactive: 1.04%.

As for `CC(C)(C)C(=O)NC(Sc1ccccc1)C(Cl)(Cl)Cl` (configuration not stated), the inhibition was inactive: 1.48%.

Regarding `CCOc1ccc(C2=NCC(CBr)S2)cc1` (configuration not stated), the inhibition is inactive: -0.93%.

Turning to `O=P1(Nc2nc3ccc(Cl)cc3s2)COc2ccccc2O1` (configuration not stated), the inhibition is inactive: -0.19%.

With `O=c1c2cc([N+](=O)[O-])ccc2[nH]c2c([N+](=O)[O-])cc([N+](=O)[O-])cc12`, the inhibition was inactive: -0.19%.

Take `CN(C)C(=O)Oc1noc2ccccc12`: the inhibition is inactive: 2.15%.

Regarding `Cc1ccccc1OP(=O)(Nc1ccccn1)Oc1ccccc1C`, the inhibition was inactive: 0.86%.

Regarding `CCC(=O)N1C2C3N(C(=O)CC)C1C1N(C(=O)CC)C(C(N1C(=O)CC)N3C(=O)CC)N2C(=O)CC`, the inhibition was inactive: 1.46%.

Consider `CC(=O)NC(SC(=S)N(CC(C)C)CC(C)C)C(Cl)(Cl)Cl` (configuration not stated), for which the inhibition was inactive: -0.11%.

As for `Cc1ccc(OP(=O)(Nc2ccccn2)Oc2ccc(C)cc2)cc1`, the inhibition is inactive: 0.2%.

Turning to `COC(=O)c1cc2c(s1)N=C(c1ccccc1)N(C)P2(=O)N1CCOCC1` (configuration not stated), the inhibition was inactive: -0.99%.

On to `Cc1ccc(NP(=O)(Oc2cccc(C)c2)Oc2cccc(C)c2)nc1`, for which the inhibition was inactive: 0.43%.

With `CCOC(=O)NC(Sc1ccccc1)C(Cl)(Cl)Cl` (configuration not stated), the inhibition was inactive: 0.25%.

For `c1ccc(-c2nn[nH]n2)c(-c2nn[nH]n2)c1`, the inhibition is inactive: 0.17%.

`CCNC(=S)/N=C(\N)N[N+](=O)[O-]`: the inhibition is inactive: 0.71%.

Take `O=C(NC1CCS(=O)(=O)C1)NP(=S)(Oc1ccccc1)Oc1ccccc1` (configuration not stated): the inhibition was inactive: -0.36%.

For `Nc1cccc2ccc([As](=O)(O)O)cc12`, the inhibition is inactive: 1.72%.

Regarding `CCN(N=Nc1nonc1N)c1nonc1N`, the inhibition is inactive: 0.91%.

For the compound `Cc1ccc(NP(=O)(Oc2ccccc2F)Oc2ccccc2F)nc1`, the inhibition is inactive: 0.63%.

As for `Cc1cc(SC(NC(=O)c2ccc(F)cc2)C(Cl)(Cl)Cl)ncn1` (configuration not stated), the inhibition was inactive: 0.9%.

Consider `CCOP(=O)(Nc1ccccc1)OCC`, for which the inhibition was inactive: 0.25% and inactive: 2.52%.

Turning to `O=P(Nc1nc2ccc(Cl)cc2s1)(c1ccccc1)c1ccccc1`, the inhibition is inactive: -0.44%.

As to `CC(=O)Nc1ccc([As](=O)(O)O)cc1`, the inhibition was inactive: -0.16%.

With `O=C(O)c1ccccc1[As](=O)(O)O`, the inhibition is inactive: 2.15%.

On to `O=C(NC(Sc1ccncn1)C(Cl)(Cl)Cl)c1ccccc1` (configuration not stated), for which the inhibition was inactive: 0.27%.

For the compound `Cc1c2non([O-])c-2c(C)[n+](=O)[n+]1[O-]`, the inhibition was inactive: 2.23%.

In the case of `Oc1ccccc1CNc1ccccn1`, the inhibition was inactive: 0.98%.

Turning to `Nc1cc(N)c2nonc2c1[N+](=O)[O-]`, the inhibition is inactive: 0.44%.

For the compound `CC(C)CC(=O)NC(Sc1ccc(Cl)cc1)C(Cl)(Cl)Cl` (configuration not stated), the inhibition is inactive: 0.1%.

With `CN1CCCC(OC(=O)C(c2ccccc2)c2ccccc2)C1` (configuration not stated), the inhibition was inactive: 0.95%.

Turning to `Clc1ccc(Cl)c(NC2=NCC(CBr)S2)c1` (configuration not stated), the inhibition was inactive: 1.44%.

For `Cc1ccc(OP(=O)(Nc2nccs2)Oc2ccc(C)cc2)cc1`, the inhibition is inactive: 0.76%.

`COc1ccccc1OP(=O)(Nc1ccc(C)cn1)Oc1ccccc1OC`: the inhibition is inactive: 0.99%.

Turning to `Cc1ccc(N/C(=N/P(=O)(N2CCOCC2)N2CCOCC2)N2CCOCC2)cc1`, the inhibition is inactive: 1.29%.

In the case of `NC(=O)c1cc([N+](=O)[O-])cc([N+](=O)[O-])c1N`, the inhibition was inactive: 0.01%.

Turning to `CC1CCN(C(=O)Oc2c(Cl)cc(Cl)c3cccnc23)CC1`, the inhibition is inactive: -1.11%.

As for `CN(C)C(=O)OCCc1n(C)cc[n+]1C`, the inhibition was inactive: 0.5%.

Regarding `CC(C)=N/N=C(\N)N[N+](=O)[O-]`, the inhibition is inactive: 1.21%.

As to `CCN(/C(=N/P(=O)(N1CCOCC1)N1CCOCC1)N1CCOCC1)c1ccc(OC)cc1`, the inhibition is inactive: 0.42%.

On to `C[N+]1=C2C=CC=CC=C2SC12C([N+](=O)[O-])=CC([N+](=O)[O-])=C[C-]2[N+](=O)[O-]` (configuration not stated), for which the inhibition was inactive: 1.01%.

As for `Nc1ccc([As](=O)(O)c2ccc(N)cc2)cc1`, the inhibition was inactive: 1%.

With `CCc1nc2c(n1)c1c(non1O)c1c2no[n+]1[O-]`, the inhibition was inactive: 0.82%.

On to `O=[N+]([O-])c1cc([N+](=O)[O-])c(CCNc2ccccc2)c([N+](=O)[O-])c1`, for which the inhibition was inactive: -0.85%.

With `Cc1ccc(NP(=O)(Oc2ccccc2)Oc2ccccc2)nc1`, the inhibition was inactive: -0.11%.

In the case of `O=[N+]([O-])c1cccc2n[nH]nc12`, the inhibition is inactive: 0.39%.

Regarding `CC(=O)N1C2C3N(C(C)=O)C1C1N(C(C)=O)C(C(N1C(C)=O)N3C(C)=O)N2C(C)=O`, the inhibition was inactive: 0%.

`COc1ccc(C2=NCC(CBr)S2)cc1` (configuration not stated): the inhibition is inactive: 1.23%.

As to `O=C(O)CNc1ccc([As](=O)(O)O)cc1`, the inhibition was inactive: 0.38%.

With `O=[N+]([O-])c1cccc(NC2=NCC(CBr)S2)c1` (configuration not stated), the inhibition is inactive: -0.27%.

For `O=[N+]([O-])c1ncn(CCn2ncnc2[N+](=O)[O-])n1`, the inhibition is inactive: 0.38%.

On to `CC(C)(C)C(=O)NC(Sc1ccncn1)C(Cl)(Cl)Cl` (configuration not stated), for which the inhibition was inactive: -0.17%.

Turning to `O=C(Nc1cc([As](=O)(O)O)ccc1O)c1ccccc1`, the inhibition is inactive: 1.14%.

On to `O=P(Nc1ccccn1)(c1cccc2ccccc12)c1cccc2ccccc12`, for which the inhibition is inactive: 2.2%.

`Cc1cc(SC(NC=O)C(Cl)(Cl)Cl)ncn1` (configuration not stated): the inhibition is inactive: 1.12%.

As to `O=[N+]([O-])c1ccc(Nc2ccc(Oc3ccc([N+](=O)[O-])cc3[N+](=O)[O-])cc2)c([N+](=O)[O-])c1`, the inhibition is inactive: 1.67%.

For `CCOC(=O)Nc1cccc([As](=O)(O)O)c1`, the inhibition was inactive: -0.35%.

In the case of `Cc1cc(SC(NC(=O)c2ccccc2)C(Cl)(Cl)Cl)nc(C(C)C)n1` (configuration not stated), the inhibition was inactive: 1.01%.

For `CCOC(=O)Nc1ccc([As](=O)(O)O)c(O)c1`, the inhibition was inactive: 1.23%.

Take `CCC(C)N(CC(C)C)C(=S)SC(NC(C)=O)C(Cl)(Cl)Cl` (configuration not stated): the inhibition is inactive: 1.24%.

Take `CCOC(=O)c1ccc(NC(=O)C(C)(CCl)SC)cc1` (configuration not stated): the inhibition was inactive: 1.01%.

On to `O=C(COc1ccccc1)OC1CN2CCC1CC2` (configuration not stated), for which the inhibition was inactive: 1.24%.

Take `COP1(=S)c2c(C)nn(CCC#N)c2N=C(c2ccc(F)cc2)N1C` (configuration not stated): the inhibition is inactive: 0.28%.

As for `COc1ccc(N/C(=N/P(=O)(N2CCOCC2)N2CCOCC2)N2CCOCC2)cc1`, the inhibition was inactive: 0.7%.

Regarding `COc1cc(I)ccc1[As](=O)(O)O`, the inhibition is inactive: 2%.

For `COc1ccc2nc(NP(=O)(c3ccccc3)c3ccccc3)sc2c1`, the inhibition was inactive: 0.18%.

For the compound `Cc1c2c(nc3ccccc13)SC(C(Cl)Cl)C2` (configuration not stated), the inhibition was inactive: -0.26%.

`Cc1cc(=O)[nH]c(N[N+](=O)[O-])n1`: the inhibition was inactive: 0.54%.

For `O=C(OC1CN2CCC1CC2)C12CC3CC(CC(C3)C1)C2` (configuration not stated), the inhibition was inactive: -1.96%.

`O=[N+]([O-])c1cc([N+](=O)[O-])c(-c2ccn[nH]2)s1`: the inhibition was inactive: 1.17%.

As for `CC(C)NC(=O)NP(=O)(Oc1ccccc1)Oc1ccccc1`, the inhibition was inactive: 1.31%.

For the compound `CCN(CC)C(=S)SC(NC=O)C(Cl)(Cl)Cl` (configuration not stated), the inhibition was inactive: 0.8%.

Turning to `ClCCSc1nnc(-c2cccnc2)o1`, the inhibition is inactive: 1.32%.

Turning to `CC(C)c1ccc(OP(=O)(Nc2ccccn2)Oc2ccccc2F)cc1` (configuration not stated), the inhibition is inactive: -0.3%.

`Cc1ccc(OP(=O)(Nc2ccc([N+](=O)[O-])cn2)Oc2ccc(C)cc2)cc1`: the inhibition was inactive: 0.4%.

With `Cc1ccc2nc3c(c(C)c2c1)CC(C(Cl)Cl)S3` (configuration not stated), the inhibition was inactive: -0.17%.

In the case of `O=[As](O)(c1ccc(O)cc1)c1ccccc1O`, the inhibition was inactive: 0.45%.

In the case of `C[As](=O)(O)c1cccc(C(=O)O)c1`, the inhibition was inactive: 0.19%.

Consider `CCOP1(=S)c2c(C)nn(CCC#N)c2N=C(c2ccc(F)cc2)N1C` (configuration not stated), for which the inhibition is inactive: 1.98%.

Take `O=[N+]([O-])c1ccc2c(c1)nnn2O`: the inhibition was inactive: -0.44%.

As for `Nc1ccccc1[As](=O)(O)c1ccccc1`, the inhibition was inactive: 0.49%.

Turning to `O=C(O)COc1ccc([As](=O)(O)O)cc1[N+](=O)[O-]`, the inhibition was inactive: 1.96%.

As for `O=P(Nc1nccs1)(Oc1ccccc1)Oc1ccccc1`, the inhibition is inactive: 1.55%.

As to `O=P(Nc1nccs1)(c1ccccc1)c1nc2ccccc2s1` (configuration not stated), the inhibition is inactive: 0.36%.

`CCOP1(=S)c2c(C)nn(CCC#N)c2N=C(c2ccccc2F)N1C` (configuration not stated): the inhibition is inactive: 0.22%.

For `CS(=O)(=O)c1cc([N+](=O)[O-])c2no[n+]([O-])c2c1`, the inhibition is inactive: 0.83%.

As to `CCOP(=O)(Nc1cccc2ccccc12)OCC`, the inhibition was inactive: -0.7%.

In the case of `COc1cc(C2NCCC3(OCCO3)C2(C)C)cc(OC)c1OC` (configuration not stated), the inhibition is inactive: -0.48%.

As for `Cc1ccc(NCCc2c([N+](=O)[O-])cc([N+](=O)[O-])cc2[N+](=O)[O-])cc1`, the inhibition is inactive: 0.12%.

Turning to `Nc1cccc2c([As](=O)(O)O)cccc12`, the inhibition is inactive: 1.2%.

`CCCOP(=S)(Nc1nc(N)cc(=O)[nH]1)OCCC`: the inhibition is inactive: 0.69%.
